Screening data deposited in PubChem BioAssay by National Center for Advancing Translational Sciences (NCATS).
Most compounds without a hit are left out; they make up all but 16% or so of the library.
TDP1 inh – inhibitors of human tyrosyl-DNA phosphodiesterase TDP1; Potency, µM (titrated, usually from 130 µM), for inactives: at the top dose activity change, negative = inhibition, most hits filed as inhibitors; recombinant TDP1, AlphaScreen DNA substrate cleavage; actives 0.28% (n = 350,000); also: potency is read from the fitted curve at half-maximal effect; % is scaled to controls: 0 for no effect and ±100 for the full control effect; nearly all actives have a fitted effect of over 40% in size
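Recombinant human Tdp1 (E. coli-expressed, 1 nM final) preincubated with compounds 15 min at room temperature, then 5'-biotin/3'-phosphotyrosine-FITC DNA substrate (15 nM final) added for 5 min. AlphaScreen beads (10 ug/ml final) added 10 min; cleavage lowers signal.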
DT40 TDP1 no CPT – qHTS for Inhibitors of human tyrosyl-DNA phosphodiesterase 1 (TDP1): qHTS in cells in absence of CPT; DT40 Tdp1-/- hTDP1 cells, no CPT, ATP luminescence, 48 h; Potency, µM (top dose mostly 46.2 µM), inactives show at the top dose activity change, negative = growth inhibition, hits mostly inhibitors; actives 15% (n = 420,000); also: potency is read from the fitted curve at half-maximal effect; % is scaled to controls: 0 for no effect and ±100 for the full control effect; nearly all actives have a fitted effect of over 55% in size
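Chicken DT40 Tdp1-/- cells stably complemented with human TDP1 were seeded at 400 cells/well with DMSO in place of 20 nM camptothecin. After compound pinning, cells grew at least 48 hr at 37 °C; viability read by CellTiter-Glo luminescence.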
uPA generation – blocks generation of uPA at the cell surface; cell surface uPA generation assay, qHTS; AID 540303; actives 0.31% (n = 330,000); Potency, µM (titrated, usually from 38.3 µM), for inactives: top-dose activity change, negative = inhibition, usual class: inhibitors; active = well fitted inhibition curve with a large enough effect; inconclusive = small, poorly fitted or top-dose-only effect; inactive = no such curve, though single readings can be large or run the other way; tested in mouse RAW 264.7 cells; also: potency is read from the fitted curve at half-maximal effect; % is scaled to controls: 0 for no effect and ±100 for the full control effect; nearly all actives have a fitted effect of over 55% in size
miR-21 reporter – raises the signal of a miR-21 reporter; AID 2288; 340,000 tested, under 10 active; Potency, µM (doses to about 38.3 µM), inactives show at the top dose reporter change, positive = more light; HeLa miR-21 FLuc reporter, luciferase, 48 h; active = well fitted rising curve with a large enough effect; inconclusive = small, poorly fitted or top-dose-only effect; inactive = no such curve, though single readings can be large or run the other way;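 note: % of control where 0% means no effect; miR-21 action dims this reporter so a rising signal means less miR-21 action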
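HeLa cells endogenously expressing miR-21, stably carrying CMV-driven firefly luciferase with a downstream miR-21 binding site, 2000 cells/well. Titrations up to approximately 40 uM, 48 hours; luciferase luminescence read.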
DT40 TDP1 CPT – DT40-hTDP1 cell growth loss with CPT; chicken DT40 Tdp1-/-;hTDP1 cells + 20 nM CPT, ATP luminescence, 48 h; actives 12% (n = 420,000); Potency, µM (top dose mostly 46.2 µM), for the others: at the top dose activity change, negative = growth inhibition, hits mostly inhibitors; also: potency is read from the fitted curve at half-maximal effect; % is scaled to controls: 0 for no effect and ±100 for the full control effect; nearly all actives have a fitted effect of over 55% in size
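Cell growth measured by CellTiter-Glo luminescence after a minimum 48 h, 37 C compound exposure with 20 nM CPT in Tdp1-knockout DT40 cells stably expressing hTDP1, seeded 400/well; qHTS titration format.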
Starred values were filed as active, the others as inactive; ? = inconclusive; · = no result given. Unless noted, calls follow the shape of the dose curve; as a rule, active = well fitted curve in the direction sought with a large enough effect; inconclusive = small, poorly fitted or top-dose-only effect, or another doubt; inactive = no such curve, though single readings can be large; an effect the other way counts as inactive or inconclusive.

Below each SMILES – TDP1 inh, DT40 TDP1 no CPT, uPA generation, miR-21 reporter, DT40 TDP1 CPT
COc1ccc(OCCN2CCC(C(=O)NC(c3ccc(F)cc3)c3ncccc3C)CC2)cc1 (configuration not stated)
    ·, 16.4µM*, ·, ·, ?
COc1ccccc1C(NC(=O)C1CCN(CCOc2ccc3ccccc3c2)CC1)c1ccccn1 (configuration not stated)
    ·, 14.6µM*, ·, ·, 14.6µM*
COc1ccc(OCCN2CCC(C(=O)NC(c3ccc(Cl)cc3)c3ncccc3C)CC2)cc1 (configuration not stated)
    ·, ?, ·, ·, 23.1µM*
O=C(COn1nnc2ccccc21)NCC1CCCCC1
    -2.1%, -28.6%, 5.2%, -44.0%, -1.7%
CCCCOC(=O)c1ccc(NC(=O)c2cc3c(=O)n4cccc(C)c4nc3n2C)cc1
    -3.9%, ?, ·, -24.0%, ?
COc1cccc(-c2nc(CS(=O)(=O)CC(=O)Nc3c(C)cc(C)cc3C)c(C)o2)c1
    -1.2%, 23.1µM*, ·, 2.7%, 18.4µM*
COc1cccc(-c2nc(CS(=O)(=O)CC(=O)NCc3ccc(C)cc3)c(C)o2)c1
    5.8%, ?, ·, 2.3%, 23.1µM*
COc1ccc(CNC(=O)CS(=O)(=O)Cc2nc(-c3cccc(OC)c3)oc2C)cc1
    4.3%, ?, -2.5%, 7.6%, ?
COc1ccc(C(=O)NCCCn2nc(C)cc2C)cc1S(=O)(=O)N1CCOCC1
    -0.8%, -1.4%, 8.1%, ·, 0.1%
NS(=O)(=O)c1ccc(CNS(=O)(=O)Cc2ccc(Cl)cc2)cc1
    2.8%, -0.1%, 12.4%, 0.1%, 6.4%
C=C1CCC[C@]2(C)C[C@H]3OC(=O)C(CNCC(C)C)[C@H]3CC12 (some centres not stated)
    ·, 16.4µM*, ?, 7.6%, ?
C=C1CCC[C@]2(C)C[C@H]3OC(=O)C(CNCCN(CC)CC)[C@H]3CC12 (some centres not stated)
    ·, 16.4µM*, -12.4%, 2.3%, ?
C=C1CCC[C@]2(C)C[C@H]3OC(=O)C(CNCCN(C)C)[C@H]3CC12 (some centres not stated)
    ·, ?, ?, 0.1%, ?
O=C(O)c1cccc(CSc2nc(-c3ccc(Cl)cc3)cc(C(F)(F)F)n2)c1
    7.8%, -19.3%, ·, -11.1%, -20.7%
Cc1ccc(C(=O)NCN2CCN(c3ccc(F)cc3)CC2)cc1
    1.3%, -3.6%, -15.9%, ·, -13.6%
O=C(CN1CCOCC1)Nc1cccc(Cl)c1Cl
    5.1%, -11.5%, -3.2%, -13.0%, -10.0%
O=C(COc1ccc(-c2nnc(N3CCCCC3)c3ccccc23)cc1)N1CCCCC1
    2.5%, 16.4µM*, -3.2%, -1.1%, ?
O=C(COc1ccc([N+](=O)[O-])cc1)N1CCN(c2nnc(-c3ccccc3)c3ccccc23)CC1
    ·, 8.2µM*, 1.4%, -2.9%, 20.6µM*
CC1CCN(C(=O)CSc2nncn2C)CC1
    1.9%, 9.3%, -2.9%, -2.9%, 2.2%
COc1ccc2c(c1)C(=O)[C@@H](O)[C@H](c1ccc(OC)c(Br)c1)O2
    6.2%, ?, ?, -9.8%, 20.6µM*
COc1cccc([C@@H]2Oc3ccc(OC)cc3C(=O)[C@H]2O)c1
    8.1%, 11.6µM*, ?, -46.4%, 6.51µM*
COc1cccc([C@@H]2Oc3ccc(Br)cc3C(=O)[C@H]2O)c1
    5.0%, ·, ·, ·, ·
Cc1ccc(S(=O)(=O)/N=C(/Nc2cccc(C(=O)O)c2)c2ccccc2)cc1
    10.4%, 18.1%, 2.5%, 1.1%, 3.2%
CC1CCCCN1C(=O)c1ccc(C(=O)c2ccccc2)cc1 (configuration not stated)
    -2.5%, 14.6µM*, -2.7%, ·, ?
CCC(C)NC(=O)c1ccc2c(=O)n3c(nc2c1)CCCCC3 (configuration not stated)
    -3.8%, -10.7%, ·, -47.3%, 17.6%
COc1ccc(Nc2cc(C)c3cc(NC(=O)c4cc(OC)cc(OC)c4)ccc3n2)cc1
    8.7%, 7.31µM*, ·, 15.0%, 9.2µM*
COc1ccc(Nc2cc(C)c3cc(NC(=O)COc4cccc(C)c4)ccc3n2)cc1
    8.7%, 14.6µM*, ·, ?, 16.4µM*
COc1ccc(Nc2cc(C)c3cc(NC(=O)Cc4c(F)cccc4Cl)ccc3n2)cc1
    5.0%, 13µM*, ·, 19.9%, 16.4µM*
Cc1cc(Nc2cccc(Cl)c2)nc2ccc(NC(=O)Cc3c(F)cccc3Cl)cc12
    -2.5%, 7.31µM*, ·, 11.2%, 13µM*
COc1ccc(Nc2cc(C)c3ccccc3n2)cc1
    5.3%, ?, 0.3%, -78.6%, -29.5%
Cc1ccc(Nc2nc(C)c3c(n2)CC(C)CC3=O)c(C)c1 (configuration not stated)
    4.7%, ?, 3.7%, 2.2%, -29.8%
CC(C)(C)N(Cc1ccccc1)C(=O)COC(=O)Cn1cnc2ccccc2c1=O
    2.4%, -5.7%, -6.7%, 0.4%, -6.9%
COc1ccc(CC(=O)Nc2ccc3nc(Nc4ccc(OC)cc4)cc(C)c3c2)cc1
    11.2%, 23.1µM*, ·, -12.2%, ?
COc1cccc(Nc2ncc3nc(-c4ccc(Cl)cc4)c(=O)n(C4CC4)c3n2)c1
    ·, -0.8%, ·, ·, -18.9%
Cc1c(C(=O)Nc2ccccc2)cn2c(nc3ccccc32)c1C#N
    7.1%, ?, 4.4%, -6.2%, ?
Cc1ccccc1C(=O)Nc1ccc2c(C#N)c3nc4ccccc4nc3n2c1
    11.3%, 20.6µM*, -8.4%, -1.1%, 20.6µM*
COc1ccc(CSc2cccc3cccnc23)cc1[N+](=O)[O-]
    5.3%, 16.4µM*, 1.5%, -37.0%, ?
O=[N+]([O-])c1cc2cccnc2c2ncccc12
    0.0%, ?, -11.5%, 20.9%, ?
COc1ccc(CSc2nc(C)[nH]c2[N+](=O)[O-])cc1[N+](=O)[O-]
    6.5%, -9.5%, -4.3%, -16.0%, 14.2%
O=[N+]([O-])c1ccc(Sc2cccc3cccnc23)c2cccnc12
    8.1%, 25.9µM*, -2.9%, -4.9%, 18.4µM*

Record cards (already shown). Order of screens: TDP1 inh | DT40 TDP1 no CPT | uPA generation | miR-21 reporter | DT40 TDP1 CPT
Cc1ccccc1C(=O)Nc1ccc2c(C#N)c3nc4ccccc4nc3n2c1 is listed as 11.3% | 20.6µM* | -8.4% | -1.1% | 20.6µM*
CC1CCCCN1C(=O)c1ccc(C(=O)c2ccccc2)cc1 (configuration not stated) is listed as -2.5% | 14.6µM* | -2.7% | · | ?
Cc1ccc(S(=O)(=O)/N=C(/Nc2cccc(C(=O)O)c2)c2ccccc2)cc1 is listed as 10.4% | 18.1% | 2.5% | 1.1% | 3.2%
COc1cccc([C@@H]2Oc3ccc(Br)cc3C(=O)[C@H]2O)c1 is listed as 5.0% | · | · | · | ·
COc1ccc(Nc2cc(C)c3ccccc3n2)cc1 is listed as 5.3% | ? | 0.3% | -78.6% | -29.5%

Continued.
Below each SMILES – TDP1 inh, DT40 TDP1 no CPT, uPA generation, miR-21 reporter, DT40 TDP1 CPT
CC1CCCN(CCS(=O)(=O)c2ccccc2)C1 (configuration not stated)
    ·, -19.0%, -5.0%, ·, 1.6%
Cc1cc2oc(=O)cc(Cn3ccnc3)c2cc1C
    -1.1%, -4.2%, -1.1%, -11.1%, 7.6%
O=C(NNS(=O)(=O)c1ccccc1C(F)(F)F)c1cccc(S(=O)(=O)Nc2ccccc2Cl)c1
    5.3%, 9.2%, 0.6%, 0.2%, -5.7%
COc1cccc(-c2c(C(=O)N/N=C(\C)c3ccc(Cl)s3)nnn2-c2nonc2N)c1
    2.8%, -11.0%, 5.5%, 1.1%, -19.1%
CCN(CC)S(=O)(=O)c1cc(NC(=O)COC(=O)Cn2cnc3ccccc32)ccc1C
    0.6%, 1.1%, 2.4%, -0.6%, -24.4%
CCN(CC)S(=O)(=O)c1ccc2[nH]c(=O)cc(C(=O)Nc3ccc(C)c(S(=O)(=O)N(CC)CC)c3)c2c1
    0.0%, 23.1µM*, -8.9%, 23.4%, ?
